Reference: ChEMBL document CHEMBL3632608, “Effects of alkyl side chains and terminal hydrophilicity on vitamin D receptor (VDR) agonistic activity based on the diphenylpentane skeleton” (Bioorg Med Chem Lett, 2015)
Active and inactive are the calls of the source. No cut-off for these calls is given here.

Biological target: T1, Vitamin D3 receptor (Homo sapiens) (UniProt P11473)
T1 sequence (whole entry): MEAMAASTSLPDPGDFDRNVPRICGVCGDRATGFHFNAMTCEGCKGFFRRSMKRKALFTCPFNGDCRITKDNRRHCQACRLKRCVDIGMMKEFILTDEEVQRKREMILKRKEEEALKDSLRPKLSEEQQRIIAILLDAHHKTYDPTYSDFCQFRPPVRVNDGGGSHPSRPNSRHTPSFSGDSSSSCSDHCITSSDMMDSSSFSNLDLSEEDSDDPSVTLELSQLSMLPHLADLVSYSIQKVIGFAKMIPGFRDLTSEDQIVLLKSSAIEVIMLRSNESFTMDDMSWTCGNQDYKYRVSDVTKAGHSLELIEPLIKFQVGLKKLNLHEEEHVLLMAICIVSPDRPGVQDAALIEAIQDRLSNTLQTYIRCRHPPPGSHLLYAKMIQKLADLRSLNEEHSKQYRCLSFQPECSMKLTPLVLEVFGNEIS
Experiment: Agonist activity at VDR in human HL60 cells assessed as induction of cell differentiation at 3 to 10 uM by NBT reduction assay
Type: cell-based
Conditions: HL-60

Activity: Active
Structure (SMILES): CCCCCCCCOC(C)(C)[C@@H](O)COc1ccc(C(CC)(CC)c2ccc(OC[C@@H](O)CO)c(C)c2)cc1C
